Measurements taken from publication PMC2584039 (Molecular Pain, 2008).

Columns and labels:
[1] = test system: CFA-induced mechanical hypersensitivity; conditions: cited from earlier work; for effect on CFA-induced mechanical hypersensitivity: intraplantar injection, wild-type (TRPA1+/+) but not TRPA1 knock-out mice
[2] = test system: CFA-induced mechanical hypersensitivity; conditions: 1 hr post dosing

SMILES	effect on CFA-induced cold hypersensitivity ([1]; intra-paw injection, ref Petrus et al. (2007))	effect on CFA-induced mechanical hypersensitivity [1]	effect on CFA-induced mechanical hypersensitivity ([1]; listed as AP-18)	percent reversal of CFA-induced mechanical hypersensitivity ([2]; 20 mg/kg p.o., vehicle 5%) [%]	effect on mechanical hypersensitivity of the injected paw vs vehicle ([2]; HC-030031 100 and 300 mg/kg, naproxen 20 mg/kg, p.o.)
CC(=C\c1ccc(Cl)cc1)/C(C)=N/O [AP18]	reverse partially	completely reversed	significantly attenuated		
COc1ccc2cc([C@H](C)C(=O)O)ccc2c1 [naproxen]				53	significantly attenuated

Like-named read-outs stand apart in the source and are kept apart here.
